Usually EC50 stands for the concentration giving half of the maximal effect.

Amino acid sequences for entries named in this document (tags omitted). A change or cut given only in a name is not applied to a line headed by its entry.
UniProt P28335: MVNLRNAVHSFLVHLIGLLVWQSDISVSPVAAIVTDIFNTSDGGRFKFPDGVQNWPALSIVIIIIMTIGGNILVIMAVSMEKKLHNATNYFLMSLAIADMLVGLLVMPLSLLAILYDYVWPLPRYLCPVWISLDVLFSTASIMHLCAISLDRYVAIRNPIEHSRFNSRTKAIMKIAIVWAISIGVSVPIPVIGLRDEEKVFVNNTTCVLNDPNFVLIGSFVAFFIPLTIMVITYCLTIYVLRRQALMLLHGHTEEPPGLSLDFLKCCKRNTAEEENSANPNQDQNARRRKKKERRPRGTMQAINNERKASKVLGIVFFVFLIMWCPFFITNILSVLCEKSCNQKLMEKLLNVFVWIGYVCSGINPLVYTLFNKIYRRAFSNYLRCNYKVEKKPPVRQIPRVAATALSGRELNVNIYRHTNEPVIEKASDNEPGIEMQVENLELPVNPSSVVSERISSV

The values that follow come from ChEMBL document CHEMBL5357013, “Identification of Spiro[chromene-2,4'-piperidine]s as Potent, Selective, and Gq-Biased 5-HT2C Receptor Partial Agonists” (ACS Med Chem Lett, 2024).

This experiment has as its target 5-hydroxytryptamine receptor 2C (Homo sapiens, UniProt P28335). The experiment can be described thus: Partial agonist activity at 5-HT2CR (unknown origin) expressed in HEK293T cells assessed as increase in calcium flux measured for 3 mins by FLIPR assay. The experiment is classed as functional, cell-based. A general note: Calcium flux is commonly read through the fluorescence of an indicator in the cells.

Consider `COc1c(O)cc2c3c1-c1ccccc1C[C@H]3NCC2` [(-)-ASIMILOBINE], for which the half-maximal effective concentration (EC50) was determined as 308 nM.
